# AlphaSeq binding of Ab-14 light chain variants to a spike HR2 peptide

Data: MIT Lincoln Laboratory AlphaSeq set, Li et al. 2023, doi:10.1038/s41467-023-39022-2, as distributed in FLAb.

The target is the same throughout: PDVDLGDISGINAS, from the HR2 region of SARS-CoV-2 spike.

Ab-14 is the parent antibody, in scFv form: VH, then a (GGGGS)3 linker, then VL. The heavy chain is unchanged in all variants.
VH: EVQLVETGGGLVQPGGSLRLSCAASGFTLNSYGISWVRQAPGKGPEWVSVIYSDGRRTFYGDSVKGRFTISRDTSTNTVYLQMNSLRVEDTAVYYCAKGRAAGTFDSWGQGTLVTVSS
VL: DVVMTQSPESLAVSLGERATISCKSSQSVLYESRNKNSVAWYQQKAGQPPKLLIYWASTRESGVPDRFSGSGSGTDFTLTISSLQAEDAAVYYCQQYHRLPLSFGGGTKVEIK

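Phage display of a naive human antibody library on the peptide gave the parent. This is the validation round: designs drawn from the data on random variants, tested in the same kind of assay. Several design methods are mixed in this list. The assay is AlphaSeq: two haploid yeast populations carry antibody and antigen on their surface. After mating in shaken culture at 30 °C for 16 h, diploids were selected and their barcode pairs sequenced. The ratio of observed to expected reads was calibrated, replicate by replicate, on BCL2-family standards whose Kd was known from biolayer interferometry. The assay was run in six technical replicates.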

Sequences are complete VL domains. Values are apparent Kd, the geometric mean of the replicates that gave a signal; lower means stronger binding. A pair that was not seen in any replicate is written "no signal"; this usually means weak binding, but a binder can also be missed. Nonspecific signal, from three strains lacking the peptide, appeared in 4% of pairings of all light chain designs, centred on 430 nM (5% of these signals below 38 nM); values are not corrected for it.

VL | Kd | seen in
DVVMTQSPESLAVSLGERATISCKSSGNVLYESRNKNSVAWYQQKAGQPPKLLIYWASTRESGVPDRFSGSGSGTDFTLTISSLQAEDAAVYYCQQYHRLPLSFGGGTKVEIK | no signal | 0/6
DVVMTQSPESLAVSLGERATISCHLSINLPGQHYMGDSVAWYQQKAGQPPKLLIYHSERRAEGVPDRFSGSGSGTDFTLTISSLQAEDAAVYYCQQYARLPLGFGGGTKVEIK | 440 pM | 6/6
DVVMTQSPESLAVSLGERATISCHVSMLTLQGMRHRNSVAWYQQKAGQPPKLLIYQMTTRENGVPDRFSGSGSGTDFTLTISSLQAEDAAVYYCQQYDRLPLSFGGGTKVEIK | 87 nM | 6/6
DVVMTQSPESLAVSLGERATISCKIDISELGESRNGNSVAWYQQKAGQPPKLLIYNASTREEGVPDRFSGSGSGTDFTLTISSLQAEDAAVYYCQQYHRLPLSFGGGTKVEIK | 8.9 nM | 6/6
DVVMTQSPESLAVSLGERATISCKLTMITGLEKVSKNNVAWYQQKAGQPPKLLIYEMETRVQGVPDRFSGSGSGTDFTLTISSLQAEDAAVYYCQQYNRLPLAFGGGTKVEIK | 620 pM | 6/6
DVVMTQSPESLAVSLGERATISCKVSQSWLMESRNKNSVAWYQQKAGQPPKLLIYEASTRQSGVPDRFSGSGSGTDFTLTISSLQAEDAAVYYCQQYHRLPLSFGGGTKVEIK | 590 pM | 6/6
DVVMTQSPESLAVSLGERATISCKVLQSVLYESRNKNNVAWYQQKAGQPPKLLIYHASTREDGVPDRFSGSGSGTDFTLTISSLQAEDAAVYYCQQYARLPLSFGGGTKVEIK | 460 pM | 6/6
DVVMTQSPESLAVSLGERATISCHSNGSLRMDERNKNHVAWYQQKAGQPPKLLIYDTDVRESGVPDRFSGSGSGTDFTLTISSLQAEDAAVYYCQQYMRLPLVFGGGTKVEIK | 490 pM | 6/6
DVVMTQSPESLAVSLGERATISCKSSQSVLYESTNKNSVAWYQQKAGQPPKLLIYQASTRESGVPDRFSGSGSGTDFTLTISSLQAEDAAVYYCQTYHRLPLSFGGGTKVEIK | 3.9 nM | 6/6
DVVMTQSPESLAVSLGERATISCKSQQSFLYESRNKNSVAWYQQKAGQPPKLLIYGASTRESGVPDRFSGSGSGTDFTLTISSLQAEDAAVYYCQDYHRLPLSFGGGTKVEIK | 860 pM | 6/6

The remaining entries, values ahead:

Kd | seen in | VL
1.4 nM | 6/6 | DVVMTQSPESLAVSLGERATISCFLSQSVLYESRNKNSVAWYQQKAGQPPKLLIYNASTRMSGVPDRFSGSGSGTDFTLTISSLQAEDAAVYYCQQYHRLPLSFGGGTKVEIK
1.7 nM | 6/6 | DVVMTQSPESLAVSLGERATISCKLSQSVLYESRNKNNVAWYQQKAGQPPKLLIYEASKRESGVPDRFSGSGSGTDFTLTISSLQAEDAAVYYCQQYHRLPLSFGGGTKVEIK
24 nM | 1/6 | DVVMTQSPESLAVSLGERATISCKISQSVLYEHRNKNSVAWYQQKAGQPPKLLIYWASTRESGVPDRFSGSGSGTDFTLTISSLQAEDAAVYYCQQIHRLPLSFGGGTKVEIK
780 pM | 6/6 | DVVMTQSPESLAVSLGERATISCKLYQNVGTMSHNKQSIAWYQQKAGQPPKLLIYDMERRMDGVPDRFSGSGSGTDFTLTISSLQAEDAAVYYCQQYHRLPLSFGGGTKVEIK
no signal | 0/6 | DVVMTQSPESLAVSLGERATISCALVAQNLQNMDNLNSIAWYQQKAGQPPKLLIYDQSQTQEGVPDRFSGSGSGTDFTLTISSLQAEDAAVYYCQQYFRLPFAFGGGTKVEIK
1.4 nM | 6/6 | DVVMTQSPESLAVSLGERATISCKQSQSVLYESRNKNSVAWYQQKAGQPPKLLIYDASTRCSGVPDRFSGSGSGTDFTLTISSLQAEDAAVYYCQQYHRLPLSFGGGTKVEIK
2.2 nM | 6/6 | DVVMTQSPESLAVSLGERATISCKFSQLVLYESRTKNSVAWYQQKAGQPPKLLIYNASTRESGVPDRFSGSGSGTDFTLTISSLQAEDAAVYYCQQYHRLPLSFGGGTKVEIK
28 nM | 6/6 | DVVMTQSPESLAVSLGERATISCNFSQMVLTGQTLRNSVAWYQQKAGQPPKLLIYHASTRFNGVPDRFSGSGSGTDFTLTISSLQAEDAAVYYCQQYHRLPLIFGGGTKVEIK
8.4 nM | 6/6 | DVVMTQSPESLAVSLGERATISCKLSVSTSYLSVNKNSVAWYQQKAGQPPKLLIYEMSTRGSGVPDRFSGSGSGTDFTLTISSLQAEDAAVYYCQQYDRLPLSFGGGTKVEIK
11 nM | 6/6 | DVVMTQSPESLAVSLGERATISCHMSMLTLMGMKQRNSVAWYQQKAGQPPKLLIYQMTMRENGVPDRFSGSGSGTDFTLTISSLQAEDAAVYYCQQYDRLPLAFGGGTKVEIK

Picked from the list: the 2 lowest averages where every replicate gave a value.

{"VL": "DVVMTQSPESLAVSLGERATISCHLSINLPGQHYMGDSVAWYQQKAGQPPKLLIYHSERRAEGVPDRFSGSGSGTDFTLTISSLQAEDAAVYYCQQYARLPLGFGGGTKVEIK", "Kd": "440 pM", "seen in": "6/6"}
{"VL": "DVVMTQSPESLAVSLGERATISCKVLQSVLYESRNKNNVAWYQQKAGQPPKLLIYHASTREDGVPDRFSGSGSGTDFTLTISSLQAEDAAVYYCQQYARLPLSFGGGTKVEIK", "Kd": "460 pM", "seen in": "6/6"}

The parent sequence was in this pool as ten entries: three were never detected, three once, and four in most replicates, with averages from 2.2 nM to 240 nM. Values of this round are not directly comparable with the first-round values of the same sequences. The authors' rule: three or more of the six replicates give a measured affinity, fewer mean a poor binder.